Publication PMC2914686 (Chemistry & biology, 2010)
pKi: −log10 of the molar value.

Biological target: T1, G9a (Homo sapiens, UniProt Q96KQ7)
T1 sequence (Q96KQ7 913-1193): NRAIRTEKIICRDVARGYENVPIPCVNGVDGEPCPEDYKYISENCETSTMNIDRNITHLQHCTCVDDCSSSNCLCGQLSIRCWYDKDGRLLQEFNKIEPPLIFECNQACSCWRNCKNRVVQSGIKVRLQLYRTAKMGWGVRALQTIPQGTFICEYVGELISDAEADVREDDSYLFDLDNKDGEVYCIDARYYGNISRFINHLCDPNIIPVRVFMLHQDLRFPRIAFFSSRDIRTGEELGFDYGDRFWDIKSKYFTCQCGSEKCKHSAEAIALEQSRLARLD
Assay: Endo-LysC-coupled microfluidic capillary electrophoresis methyltransferase assay
Type: biochemical

**Q.** With `COc1cc2c(NC3CCN(C)CC3)nc(N3CCCN(C)CC3)nc2cc1OCCCN(C)C` [UNC0224] as the compound, how does the pKi read?
**A.** 8.80
